Test results published in US20250009763A1, “METHODS FOR EXTENDING LIFESPAN AND/OR DELAYING AGING” (priority 2023, published 2025).

What was measured:
SIRT1 [1] = target: T1, SIRT1 (Homo sapiens, UniProt Q96EB6); test: Acetylation of p53 (K382) via UV irradiation, western blot, U2OS cells; format: cell-based; details: Ex527 added before PN6, FIGS. 2E-2F
T1 construct: endogenous in cells; host or cells: U2OS cells; IMR90 cells
T1 sequence (Q96EB6 1-747): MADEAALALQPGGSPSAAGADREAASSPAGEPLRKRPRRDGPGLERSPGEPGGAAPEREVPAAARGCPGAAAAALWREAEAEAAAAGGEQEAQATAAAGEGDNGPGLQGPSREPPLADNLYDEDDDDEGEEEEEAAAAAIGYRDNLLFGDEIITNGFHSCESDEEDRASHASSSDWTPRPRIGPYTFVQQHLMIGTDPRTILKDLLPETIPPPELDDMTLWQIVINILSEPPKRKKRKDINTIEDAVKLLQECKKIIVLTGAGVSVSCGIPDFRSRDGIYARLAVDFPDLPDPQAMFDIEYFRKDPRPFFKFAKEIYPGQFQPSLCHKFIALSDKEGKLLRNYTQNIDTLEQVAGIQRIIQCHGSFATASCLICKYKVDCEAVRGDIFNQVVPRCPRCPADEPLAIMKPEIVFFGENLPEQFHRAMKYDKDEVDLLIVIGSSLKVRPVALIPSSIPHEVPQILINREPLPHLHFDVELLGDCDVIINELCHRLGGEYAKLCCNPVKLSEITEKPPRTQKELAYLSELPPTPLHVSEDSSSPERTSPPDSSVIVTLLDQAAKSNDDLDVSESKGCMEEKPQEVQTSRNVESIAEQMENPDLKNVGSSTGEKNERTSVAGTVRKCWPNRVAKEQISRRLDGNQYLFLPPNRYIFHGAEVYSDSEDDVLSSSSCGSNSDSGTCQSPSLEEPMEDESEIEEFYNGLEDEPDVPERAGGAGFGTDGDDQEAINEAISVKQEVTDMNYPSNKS
Description: (§1) U2OS cells (1.2×10^5 cells/dish) or IMR90 cells (3.0×10^5 cells/dish) were seeded into a 3.5 cm culture dish, and incubated with 0, 10, 25, 50, or 100 μM PN6 for 16 hours, before subjected to UVB irradiation at 7.5 mJ/m^2 (for U2OS cells) or 5.0 mJ/m^2 (for IMR90 cells) for 4 hours. In the case when selisistat (Ex527, an inhibitor for yeast SIR2 or mammalian SIRT1) was added, 1 μl of 50 mM Ex527 was added to the culture one hour prior to the addition of PN6.
(§2) Cells were harvested with a 1.25× Laemmli buffer and lysed in RIPA lysis buffer containing 1% of Triton X-100 and a protease inhibitor cocktail, and total protein concentrations were measured with a protein assay kit. Proteins in the samples of the lysates with the same amounts of total protein were separated by sodium dodecyl sulfate polyacrylamide gel electrophoresis (SDS-PAGE) (10% polyacrylamide gels) and analyzed by immunoblotting. Primary antibodies against p53ac (K382) (1:1,000), p21 (1:1,000), and 3-actin (1:200,000) were applied to detect the corresponding proteins. Horseradish peroxidase (HRP)-conjugated secondary antibodies against mouse IgG were then incubated with the membranes, and proteins were visualized by chemiluminescence according to the manufacturer's instructions. Protein quantification was performed by software.

SIRT1 [2] = target: T1, SIRT1; test: Acetylation of p53 (K382) via UV irradiation, western blot, IMR90 cells; format: cell-based; details: presence of Ex527, FIGS. 2I-2J
Description: as §1, §2

## selisistat [Ex527, reference compound]
SIRT1 [1]
  effect on SIRT1 activity induced by PN6: compromised
SIRT1 [2]
  effect on PN6-induced reversal of P53 acetylation: eliminated
